One assay addresses MMP 13 (Homo sapiens, UniProt P45452). The assay is described as follows: MMP 13 inhibition (IC50 / manual assay; method not described). Type of assay: biochemical. The conditions noted are these: read-out: MMP 13 IC 50.
Another assay deals with T1, MMP 1 (Homo sapiens, UniProt P03956).
T1 construct: human recombinant fibroblast collagenase (truncated, mw= 18,828, WAR, Radnor)
T1 sequence (P03956 100-269 limits assumed): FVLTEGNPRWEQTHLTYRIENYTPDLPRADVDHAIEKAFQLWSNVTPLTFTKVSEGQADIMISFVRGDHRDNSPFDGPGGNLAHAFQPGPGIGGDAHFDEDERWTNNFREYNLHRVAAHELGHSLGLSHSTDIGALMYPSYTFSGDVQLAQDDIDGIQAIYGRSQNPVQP
The experiment in a line: In Vitro Collagenase Assay. Type of assay: biochemical. The conditions noted are these: human recombinant fibroblast collagenase; read-out: MMP 1 IC 50.

The values that follow come from EP0970046B1, “N-HYDROXY-2-(ALKYL, ARYL, OR HETEROARYL SULFANYL, SULFINYL OR SULFONYL)-3-SUBSTITUTED ALKYL, ARYL OR HETEROARYLAMIDES AS MATRIX METALLOPROTEINASE INHIBITORS” (Wyeth Holdings Corporation, priority 1997, dated 1998).

On to `CCCCC(Cc1cccnc1)(C(=O)NO)S(=O)(=O)c1ccc(OC)cc1` (stereo not drawn) [Example 70, 2-(4-Methoxy-benzenesulfonyl)-2-pyridin-3-ylmethyl-hexanoic acid hydroxyamide], for which the IC50 on MMP 13 was 127 nM.

For `CCCCOc1ccc(S(=O)(=O)C2(C(=O)NO)CCN(Cc3ccc(OC)cc3)CC2)cc1` [Example 104, 4-(4-n-Butoxy-benzenesulfonyl)-1-(4-methoxy-benzyl)-piperidine-4-carboxylic acid hydroxyamide], the IC50 at MMP 1 amounted to 2610 nM.

As to `COc1ccc(S(=O)(=O)C(Cc2ccc3ccccc3c2)C(=O)NO)cc1` (stereo not drawn) [Example 40, N-Hydroxy-2-(4-methoxy-benzenesulfonyl)-3-naphthalen-2-yl-propionamide], the IC50 on MMP 1 turned out to be 583 nM.
